Measurements from patent publication US20250161419A1, “SERPIN PEPTIDES AND METHODS OF USING THE SAME” (SERPIN PHARMA, LLC, priority 2022, published 2025).

How the values were obtained:
[1] = test system: capsaicin induced acute pain-related behavior in mice; experiment: Intraplantar capsaicin model of acute nociception; assay type: in vivo, mouse; settings: male mice; SP163M 2 μg/g s.c. or EI-tPA 2 μg/g i.v. 1 h before capsaicin
Experimental: For the capsaicin studies, male (n=41) and female (n=37) mice were acclimated to the behavior testing facility for at least 1 h. Capsaicin was dissolved in 20% (2-hydroxypropyl)-β-cyclodextrin (Sigma-Aldrich, St. Louis, MO, USA) solution. […] Subsequently, 10 μl of 2 μg/μl capsaicin solution was injected into the plantar area of left hind paw. Immediately after capsaicin injection, mice were placed in a plexiglass box. Two observers, blinded to treatments, recorded the time spent licking and flinching the left hind paw over 10 min.

CD11b [2] = experiment: Immunoblot of injured sciatic nerve two days after PNL, CD11b; assay type: in vivo, mouse; settings: 2 μg/g s.c., vs vehicle
Experimental: (§1) Neuropathic pain model: Mice (n=30) were randomly assigned to two different groups: SP163M (2 μg/g; s.c. 100 μl) and vehicle (H20 s.c. 100 μl). Mice were treated 1 h prior to partial nerve ligation (PNL) and then daily at least 1 h prior to behavior testing for 2 weeks. PNL studies were performed as previously disclosed^59 and adapted for mice.^57 Male mice were anesthetized with 3% isoflurane (Vetone, USA) in 1.5 L/min oxygen (Praxair, USA) and maintained with 2.5% isoflurane. An incision was made along the long axis of the femur. […] Filaments were presented in a consecutive fashion either ascending or descending using the up-down method as previously disclosed^60 and modified for mice.^57,61 The filament that caused paw withdrawal 50% of the time (the 50% PWT) was determined. […]
(§2) Immunoblots of sciatic nerve: Sciatic nerves were harvested 2 days after PNL to identify early molecular and cellular changes. […] Nerves were lysed in RIPA buffer and equal amounts of protein (20 μg) from nerves lysates, as determined by BCA Protein Assay (Bio-Rad, Hercules, CA, USA), were subjected to 10% SDS-PAGE and electro-transferred to nitrocellulose membranes. […] Primary antibodies were detected with HRP-conjugated species-specific secondary antibodies (Cell Signaling Technology, Danvers, MA, USA; cat #7076S or 4S; 1:5000). […]

CD11b [3] = experiment: Immunohistochemistry of L4 DRGs two days after PNL, CD11b; assay type: in vivo, mouse; settings: L4 DRG two days after PNL, vs vehicle
Experimental: as §1, §2

phospho-STAT6 = experiment: IL-13 stimulated STAT6 phosphorylation in esophageal EPC2 cells (western blot); assay type: cell-based, human
Experimental: Esophageal EPC2 cells were treated with vehicle (ddw), A1AT or SP163M. Cells were collected at time-points indicated and western blot analysis of phospho-specific STAT6 was analyzed. […] Using CRISPER/CAS9 technology, an LRP1 knockout esophageal EPC2 cell line was created.

[4] = test system: esophageal eosinophilia in Balb/C mice; experiment: Model of eosinophilic esophagitis using A. alternata as allergen, anti-MBP staining of esophageal sections; assay type: in vivo, mouse; settings: twice weekly over 4 weeks, 8 treatments; vs vehicle and vs A1AT at a higher dose
From the text: Balb/C mice were repeatedly challenged with a series of the allergen A. alternata over 4 weeks. A. alternata is a common airborne mold associated with eosinophilic inflammation and a variety of allergic diseases, such as rhinitis, asthma and dermatitis, and is an established model that induces allergic reaction at the esophagus. In this model, the allergen challenges lead to an increase in esophageal eosinophilia. SP163M, A1AT or vehicle (control) was given twice weekly over the 4-week period for 8 total treatments. At the end of the study, esophageal sections were stained for the detection of MBP (eosinophilic marker) and quantitated per high power field.

HaCat cells = experiment: CellTiter-Glo cell viability of Poly IC induced HaCat cells; assay type: cell-based, human; settings: Poly IC 50 μg/ml 24 hours, SP163M 100 μg/ml, p=0.0068 vs vehicle
Experimental: Cells were pretreated with either vehicle or SP163M (100 μg/ml). TSLP was measured in the supernatant via ELISA (p=0.0045 vs. vehicle treated Poly IC induced cells). FIG. 10B: HaCat cells treated as in FIG. 10A were analyzed via the CellTiter-Glo® Luminescent Cell Viability Assay by Promega. The percent change from untreated (no Poly IC) cells were compared between SP163M vs. vehicle treated poly IC induced control (p=0.0068). FIG. 10C: HaCat cells were insulted with TNFα and immunoblotted for phospho-IkBa (Ser32). GAPDH served as a loading control and signal normalization.
In this model of dermal inflammation, SP163M decreased a key cytokine (TSLP) that controls allergic responses, and protected cells from death.

## CCCC[C@H](NC(=O)[C@H](CC(C)C)NC(=O)[C@H](Cc1ccccc1)NC(=O)[C@@H](NC(=O)[C@H](Cc1ccccc1)NC(=O)[C@@H]1CCCN1C(=O)[C@H](CCCCN)NC(=O)[C@H](CC(N)=O)NC(=O)[C@H](Cc1ccccc1)NC(=O)[C@H](CCCCN)NC(=O)[C@@H](NC(C)=O)C(C)C)C(C)C)C(=O)N[C@H](C(=O)N[C@@H](CCC(=O)O)C(=O)N[C@@H](CCC(N)=O)C(=O)N[C@@H](CC(N)=O)C(=O)N[C@H](C(=O)N[C@@H](CCCCN)C(N)=O)[C@@H](C)O)[C@@H](C)CC [SP163M, Ac-VKFNKPFVFLNIeIEQNTK-NH2]
[1]
  capsaicin induced acute pain-related behavior (time spent licking over 10 min): blocked the capsaicin induced acute pain-related behavior
CD11b [2]
  reduction of CD11b levels in injured sciatic nerve (densitometric analysis): 10 fold
CD11b [3]
  CD11b levels in DRGs (quantification of immunohistochemistry): approximately five-fold less CD11 b levels than vehicle-treated DRGs
phospho-STAT6; CRISPER/CAS9 LRP1 knockout EPC2 cells
  phosphorylated STAT6 in LRP1 knockout cell line: not capable of reducing phosphorylated STAT6
phospho-STAT6; EPC2 cells, IL-13
  persistence of the reduction in STAT6 phosphorylation: persisted for several hours post-treatment
phospho-STAT6; EPC2 control cells
  phospho-STAT6 expression in control cells (with LRP1): capable of reducing phospho-STAT6 expression
[4]
  number of eosinophils that infiltrated to the esophagus (per high power field): decreased the number of eosinophils that infiltrated to the esophagus
HaCat cells
  cell viability: increase in cell viability
